target: EGFR T790M L858R (Homo sapiens, UniProt P00533, L858R/T790M); assay: biochemical; settings: EGFR(T790M/L858R) Ki (μM), 5 μM ATP, 30 min, room temperature; apparent Ki (Morrison) converted by Cheng-Prusoff, Km of ATP 1.3 μM

By UniProt entry, the sequences of proteins in these tests, tags left out. Residues count along the entry.
UniProt P00533, 25-1210 T790M/L858R limits assumed: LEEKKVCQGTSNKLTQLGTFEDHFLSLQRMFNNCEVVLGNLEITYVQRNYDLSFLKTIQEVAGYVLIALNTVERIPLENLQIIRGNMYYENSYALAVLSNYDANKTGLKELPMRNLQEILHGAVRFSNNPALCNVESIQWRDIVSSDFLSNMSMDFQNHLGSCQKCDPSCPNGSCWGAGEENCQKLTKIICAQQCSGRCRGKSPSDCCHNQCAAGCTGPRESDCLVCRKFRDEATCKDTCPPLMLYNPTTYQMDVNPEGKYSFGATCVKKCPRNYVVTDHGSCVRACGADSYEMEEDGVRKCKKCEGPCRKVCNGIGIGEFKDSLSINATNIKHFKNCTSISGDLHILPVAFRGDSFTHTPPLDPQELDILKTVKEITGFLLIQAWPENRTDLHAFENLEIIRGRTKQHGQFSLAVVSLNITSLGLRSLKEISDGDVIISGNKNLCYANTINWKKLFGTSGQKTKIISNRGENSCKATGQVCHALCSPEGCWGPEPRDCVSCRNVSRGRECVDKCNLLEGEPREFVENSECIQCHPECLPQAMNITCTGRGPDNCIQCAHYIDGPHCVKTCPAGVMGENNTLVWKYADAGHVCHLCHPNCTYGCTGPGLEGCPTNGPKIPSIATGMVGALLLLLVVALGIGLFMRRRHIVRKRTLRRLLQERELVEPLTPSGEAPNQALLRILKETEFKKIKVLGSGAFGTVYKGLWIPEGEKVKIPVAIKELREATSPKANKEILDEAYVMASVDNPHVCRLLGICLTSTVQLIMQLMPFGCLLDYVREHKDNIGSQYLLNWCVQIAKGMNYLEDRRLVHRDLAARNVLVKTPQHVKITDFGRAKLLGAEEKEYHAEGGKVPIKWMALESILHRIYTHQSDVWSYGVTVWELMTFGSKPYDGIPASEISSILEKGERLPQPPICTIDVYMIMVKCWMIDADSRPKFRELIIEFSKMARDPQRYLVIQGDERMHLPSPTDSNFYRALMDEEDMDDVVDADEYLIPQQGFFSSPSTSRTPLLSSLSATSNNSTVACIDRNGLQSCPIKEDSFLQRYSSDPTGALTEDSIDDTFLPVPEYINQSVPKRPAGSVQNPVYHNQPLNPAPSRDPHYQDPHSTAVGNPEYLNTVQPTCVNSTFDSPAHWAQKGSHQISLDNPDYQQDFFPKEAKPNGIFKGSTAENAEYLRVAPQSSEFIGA

Ki [µM]	SMILES
0.323	CC(C)n1cnc2cnc(Nc3ccnc(N4CCC5(CCOC5)C4)n3)cc21 (single isomer, unassigned) [Example 36, (R or S)—N-(2-(2-oxa-7-azaspiro[4.4]nonan-7-yl)pyrimidin-4-yl)-1-isopropyl-1H-imidazo[4,5-c]pyridin-6-amine]
0.5	CO[C@@H]1CCN(c2nccc(Nc3cc4c(cn3)nc(CO)n4C(C)C)n2)C[C@H]1C(F)(F)F (racemic) [Example 629, (1-Isopropyl-6-(2-((±)-(trans)-4-methoxy-3-(trifluoromethyl)piperidin-1-yl)pyrimidin-4-ylamino)-1H-imidazo[4,5-c]pyridin-2-yl)methanol]
0.0101	CC(CC(F)(F)F)n1c(CO)nc2cnc(Nc3ccnc(-c4cnn(S(=O)(=O)C5CC5)c4)n3)cc21 (centres unmarked) [Example 696]
0.00615	Cc1nc2cnc(Nc3ccnc(N4CCC(O)C(F)(F)C4)n3)cc2n1C(C)C (racemic) [Example 507, (±)-3,3-Difluoro-1-(4-((1-isopropyl-2-methyl-1H-imidazo[4,5-c]pyridin-6-yl)amino)pyrimidin-2-yl)piperidin-4-ol]
0.0012	COC1CCN(c2nccc(Nc3cc4c(cn3)c(C(=O)NC3CCN(C)CC3)cn4C(C)C)n2)CC1 [Example 114, 1-isopropyl-6-((2-(4-methoxypiperidin-1-yl)pyrimidin-4-yl)amino)-N-(1-methylpiperidin-4-yl)-1H-pyrrolo[3,2-c]pyridine-3-carboxamide]
0.0249	Cc1nc2cnc(Nc3ccnc(N4CCC(O)C(C)(C)C4)n3)cc2n1C(C)C (centres unmarked) [Example 427, 1-(4-((1-isopropyl-2-methyl-1H-imidazo[4,5-c]pyridin-6-yl)amino)pyrimidin-2-yl)-3,3-dimethylpiperidin-4-ol]

More lines, now with the values behind:

SMILES	Ki [µM]
CC(C)n1cnc2cnc(Nc3ccnc(Nc4cn[nH]c4)n3)cc21 [Example 42, N^4-(1-Isopropyl-1H-imidazo[4,5-c]pyridin-6-yl)-N^2-(1H-pyrazol-4-yl)pyrimidine-2,4-diamine]	0.173
CC(C)n1c(N(C)C)nc2cnc(Nc3ccnc(-c4cnn(S(=O)(=O)C5CC5)c4)n3)cc21 [Example 283, N^6-[2-(1-Cyclopropanesulfonyl-1H-pyrazol-4-yl)-pyrimidin-4-yl]-1-isopropyl-N^2,N^2-dimethyl-1H-imidazo[4,5-c]pyridine-2,6-diamine]	0.00668
Cc1nc2cnc(Nc3ccnc(-c4ccc(S(C)(=O)=O)cc4)n3)cc2n1C(C)C [Example 647]	0.158
CC(C)n1cnc2cnc(Nc3ccnc(N4CCC5(CCN(S(C)(=O)=O)C5)C4)n3)cc21 (centres unmarked) [Example 71, 1-isopropyl-N-(2-(7-(methylsulfonyl)-2,7-diazaspiro[4.4]nonan-2-yl)pyrimidin-4-yl)-1H-imidazo[4,5-c]pyridin-6-amine]	0.386
CC(n1cc(C(=O)NC2CCOCC2)c2cnc(Nc3ccnc(N4CCC(C)(O)CC4)n3)cc21)C(F)(F)F (centres unmarked) [Example 636, 6-(2-(4-Hydroxy-4-methylpiperidin-1-yl)pyrimidin-4-ylamino)-N-(tetrahydro-2H-pyran-4-yl)-1-(1,1,1-trifluoropropan-2-yl)-1H-pyrrolo[3,2-c]pyridine-3-carboxamide]	0.00736
Cc1nc2cnc(Nc3ccnc(-c4cnn(S(=O)(=O)C(C)C)c4)n3)cc2n1C(C)C [Example 409, 1-isopropyl-N-(2-(1-(isopropylsulfonyl)-1H-pyrazol-4-yl)pyrimidin-4-yl)-2-methyl-1H-imidazo[4,5-c]pyridin-6-amine]	0.00195
CC(C)n1cc(C(N)=O)c2cnc(Nc3ccnc(NC4CCS(=O)(=O)C4)n3)cc21 (centres unmarked) [Example 126, 6-((2-((1,1-dioxidotetrahydrothiophen-3-yl)amino)pyrimidin-4-yl)amino)-1-isopropyl-1H-pyrrolo[3,2-c]pyridine-3-carboxamide]	0.372
CC(C)n1cnc2cnc(Nc3ccnc(N[C@@H]4CCOC4)n3)cc21 [Example 147, N^4-(1-Isopropyl-1H-imidazo[4,5-c]pyridin-6-yl)-N^2-(R)-tetrahydrofuran-3-ylpyrimidine-2,4-diamine]	1.19

Reference: US9890152B2 (Genentech, Inc., priority 2012, dated 2018)
